Assay results taken from patent US7435438B1, “Disinfectant and method of use” (Pure BioScience, priority 2003, dated 2008).

What was measured:
[1] = tested on: dermal lesions both contaminated and infected with gram negative and gram positive bacteria; details: equine
[2] = tested on: total bacteria present; details: after the 5 ppm / 0.1 ppm rinse

## silver dihydrogen citrate
[1]
  damage to tissue on irrigating deep wounds and abscesses: without damage to tissue
[2]
  Silver residuals detected on the produce: within allowable tolerances for food grade products
